Data on 1 substance can be found in US20030109571A1, “Thromboxane ligands without blood clotting side effects” (ALLERGAN SALES, INC., priority 1993, published 2003).

Where two headings read alike, the source gives them in different places.

For this experiment, the target named is T1, TP-receptor (vascular, TPVASC) (Rattus norvegicus, UniProt P34978).
T1 construct: measured in vitro in isolated smooth muscle preparations; from tissue; host or cells: rings of isolated rat thoracic aorta
T1 sequence (P34978 1-341): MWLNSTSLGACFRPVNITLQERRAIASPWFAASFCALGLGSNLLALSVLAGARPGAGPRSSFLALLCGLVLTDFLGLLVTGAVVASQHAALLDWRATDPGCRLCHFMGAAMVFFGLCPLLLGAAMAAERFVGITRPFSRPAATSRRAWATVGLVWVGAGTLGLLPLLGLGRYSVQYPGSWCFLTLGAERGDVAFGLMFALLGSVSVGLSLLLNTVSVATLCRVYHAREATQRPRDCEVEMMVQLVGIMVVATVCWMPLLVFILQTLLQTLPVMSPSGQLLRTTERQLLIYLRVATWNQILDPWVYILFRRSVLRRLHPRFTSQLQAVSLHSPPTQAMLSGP
The experiment is described as follows: TP-vasoconstrictor activity: contraction of rings of isolated rat thoracic aorta, without or with SQ29,548. On the procedure: Activity at different prostanoid receptors was measured in vitro in isolated smooth muscle preparations. FP-activity was measured as contraction of the isolated feline iris sphincter. EP1-activity was measured as contraction of the longitudinal smooth muscle of the isolated guinea pig ileum. EP3-activity was measured as inhibition of the twitch response induced by electrical field stimulation in the isolated guinea pig was deferens and as contraction of the longitudinal smooth muscle of the isolated chick ileum. TP-vasoconstrictor activity was measured as contraction of rings of the isolated rat thoracic aorta. Effects on platelets from healthy human donors were measured by incubating platelet-rich plasma with the compounds described herein. Inhibition of aggregation was determined by the ability of the compounds described herein to inhibit platelet aggregation in platelet-rich plasma induced by 20 μM ADP.
In addition, inhibition by the thromboxane A2-receptor antagonist SQ29,548 ([1S-[1α, 2α (5Z), 3α, 4α]]-7-[3-[[2-[phenylamino)carbonyl]-hydrazino]methyl]-7-oxabicyclo[2.2.1] hept-2-yl]-5-heptenoic acid) of vasoconstrictor activity was investigated. For that purpose, activity of the compound of Example 4, the compound of Example 7, and U-46619 (9,11-dideoxy-9α,11α-methanoepoxy prostaglandin F2α), a potent and stable thromboxane A2 analog, was measured in rings of the isolated rat thoracic aorta, first in the absence and then in the presence of SQ29,548 (1 uM).

Regarding “9,11-dideoxy-9α,11α-methanoepoxy prostaglandin F2α [Example U-46619, reference compound]”, the half-maximal effective concentration (EC50) is, setting by setting: (Table 7, read-out: EC50 (Rat Aorta)) 10 nM; (absence of SQ29,548, read-out: EC50 at TPVASC-receptor, rat aorta) 1.3 nM; (presence of SQ29,548 (1 uM), read-out: EC50 at TPVASC-receptor, rat aorta) 8080 nM.

Usually EC50 stands for the midpoint of the concentration-response curve.
